The values that follow are results of earlier work, collected in US20220183964A1, “IMPLANTABLE POLYMER DEPOTS FOR THE CONTROLLED, SUSTAINED RELEASE OF THERAPEUTIC AGENTS” (Foundry Therapeutics, Inc., priority 2019, published 2022).

The conditions of this data set: PVP electrospun nanofiber with 2.5 wt % Tween 20.

Take maraviroc: the “time for complete release of 28 wt % maraviroc” value is “six minutes”.
